The text below walks through data of US20120058499.

The series addresses Ub(1-76)-aminoluciferin.

B1: USP7 (ubiquitin specific peptidase 7) (protein)
chain: MNHQQQQQQQKAGEQQLSEPEDMEMEAGDTDDPPRITQNPVINGNVALSDGHNTAEEDMEDDTSWRSEATFQFTVERFSRLSESVLSPPCFVRNLPWKIMVMPRFYPDRPHQKSVGFFLQCNAESDSTSWSCHAQAVLKIINYRDDEKSFSRRISHLFFHKENDWGFSNFMAWSEVTDPEKGFIDDDKVTFEVFVQADAPHGVAWDSKKHTGYVGLKNQGATCYMNSLLQTLFFTNQLRKAVYMMPTEGDDSSKSVPLALQRVFYELQHSDKPVGTKKLTKSFGWETLDSFMQHDVQELCRVLLDNVENKMKGTCVEGTIPKLFRGKMVSYIQCKEVDYRSDRREDYYDIQLSIKGKKNIFESFVDYVAVEQLDGDNKYDAGEHGLQEAEKGVKFLTLPPVLHLQLMRFMYDPQTDQNIKINDRFEFPEQLPLDEFLQKTDPKDPANYILHAVLVHSGDNHGGHYVVYLNPKGDGKWCKFDDDVVSRCTKEEAIEHNYGGHDDDLSVRHCTNAYMLVYIRESKLSEVLQAVTDHDIPQQLVERLQEEKRIEAQKRKERQEAHLYMQVQIVAEDQFCGHQGNDMYDEEKVKYTVFKVLKNSSLAEFVQSLSQTMGFPQDQIRLWPMQARSNGTKRPAMLDNEADGNKTMIELSDNENPWTIFLETVDPELAASGATLPKFDKDHDVMLFLKMYDPKTRSLNYCGHIYTPISCKIRDLLPVMCDRAGFIQDTSLILYEEVKPNLTERIQDYDVSLDKALDELMDGDIIVFQKDDPENDNSELPTAKEYFRDLYHRVDVIFCDKTIPNDPGFVVTLSNRMNYFQVAKTVAQRLNTDPMLLQFFKSQGYRDGPGNPLRHNYEGTLRDLLQFFKPRQPKKLYYQQLKMKITDFENRRSFKCIWLNSQFREEEITLYPDKHGCVRDLLEECKKAVELGEKASGKLRLLEIVSYKIIGVHQEDELLECLSPATSRTFRIEEIPLDQVDIDKENEMLVTVAHFHKEVFGTFGIPFLLRIHQGEHFREVMKRIQSLLDIQEKEFEKFKFAIVMMGRHQYINEDEYEVNLKDFEPQPGNMSHPRPWLGLDHFNKAPKRSRYTYLEKAIKIHN
Turning to B1, the “S/B against the S/B for both Ub-AMC and Ub-Rhodamine110, enzyme 0.5 nM” value is “increased by ~100-fold relative to the S/B for both Ub-AMC and Ub-Rhodamine110”.
